Sequences of proteins named here, by UniProt entry; tags and fusion partners are left off. A change or cut given only in a name is not applied to a line headed by its entry.
UniProt P35372: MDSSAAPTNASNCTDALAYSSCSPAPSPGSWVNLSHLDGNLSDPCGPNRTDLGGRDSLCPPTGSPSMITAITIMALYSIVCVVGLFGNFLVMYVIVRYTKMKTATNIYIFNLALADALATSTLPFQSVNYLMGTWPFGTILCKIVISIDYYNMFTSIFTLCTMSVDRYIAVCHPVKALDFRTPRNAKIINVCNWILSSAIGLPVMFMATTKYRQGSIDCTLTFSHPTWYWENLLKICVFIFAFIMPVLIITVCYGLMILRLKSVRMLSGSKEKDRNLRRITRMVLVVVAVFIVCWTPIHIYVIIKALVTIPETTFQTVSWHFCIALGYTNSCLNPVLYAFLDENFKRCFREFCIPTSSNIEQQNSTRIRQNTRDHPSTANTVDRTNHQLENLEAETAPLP

According to patent US20180305370A1 (ORPHOMED, INC., priority 2015, published 2018):

Columns and labels:
[1] = molecular target: T1, human μ receptors (Homo sapiens, UniProt P35372); assay: μ opioid receptor antagonist functional assay, [35S]GTPγS binding in CHO-hMOR membranes; details: FIG. 5
[2] = molecular target: human μ opioid receptor (Homo sapiens, UniProt P35372); assay: Human μ opioid receptor binding assay (3H-naloxone, CHO membranes); details: FIG. 2
[3] = molecular target: T1, human μ receptors; assay: μ opioid receptor agonist functional assay, [35S]GTPγS binding in CHO-hMOR membranes; details: FIG. 4

## 2-[(2S)-2-[(5R,6R,7R,14S)-9α-cyclopropylmethyl-4,5-epoxy-6,14-ethano-3-hydroxy-6-methoxymorphinan-7-yl]-3,3-dimethylbutan-2-ol]-ethanol
[1]
  μ antagonist function: does not function as a μ-antagonist
[2]
  affinity for the opioid μ receptor: significant affinity
[3]
  μ agonist function: potent μ agonist
